Measured values published in US20030152646A1, “Method of treating conditions caused by activated microglia” (priority 2001, published 2003).

Experiments:
[1] = test system: microglia-neuron co-cultures; conditions: 100 ng/ml LPS, 48 hours; L-NMMA 1 mM, PEN 500 μM, THA 200 μM, FeTMPyP 2 μM, FeTPPS 2 μM, MnTMPyP 5 μM, 50 U/ml SOD + 100 U/ml catalase
[2] = test system: nitric oxide (NO) production; assay: Nitrite measurement (Griess reaction) in LPS-treated microglia-neuron co-cultures; assay type: cell-based, rat; conditions: 100 ng/ml LPS, 48 hours; same concentrations as for neuron survival
[3] = test system: Saccharomyces cerevisiae cells lacking cytosolic superoxide dismutase (sod1Δ); assay: Yeast sod mutants growth assay; conditions: 25 μM, YPE (ethanol) medium, absence or presence of paraquat (10 μM), 48 hours
[4] = test system: microglia-neuron co-cultures; conditions: 5 μM Aβ1-42 + 10 ng/ml interferon γ, 48 hour; FeTMPyP 2 μM, MnTMPyP 5 μM
[5] = test system: microglia-neuron co-cultures; assay: Neuron survival in co-cultures treated with the NO donor SNP; conditions: SNP 300 μM plus FeTMPyP 2 μM, 48 hr

Mn(III)tetrakis(1-methyl-4-pyridyl)porphyrin pentachloride
effect on LPS-induced neuron death / microglial neurotoxicity [1]: attenuated
effect on nitrite accumulation / NO production [2]: without compromising nitric oxide production
effect on growth defects of sod1Δ mutants [3]: reversed the growth defects

5,10,15,20-Tetrakis(N methyl-4′-pyridyl)porphinato iron (III) chloride
effect on Aβ-induced microglial neurotoxicity [4]: blocked
effect on SNP-induced neuron death [5]: could not be blocked
effect on growth defects of sod1Δ mutants [3]: did not reverse the growth defects
